Measured values as given in ChEMBL document CHEMBL2086370 (J Med Chem, 2012).

Legend:
Nociceptin receptor [1] = molecular target: T1, Nociceptin receptor (Homo sapiens, UniProt P41146); test: Displacement of [3H]Nociceptin from human recombinant NOP receptor expressed in CHO cells by scintillation counter
Mu-type opioid receptor = Mu-type opioid receptor (Homo sapiens, UniProt P35372); assay type: cell membranes; conditions: cho
[2] = molecular target: Delta-type opioid receptor (Homo sapiens, UniProt P41143); conditions: cho
[3] = molecular target: Kappa-type opioid receptor (Homo sapiens, UniProt P41145); conditions: cho
Nociceptin receptor [4] = molecular target: T1, Nociceptin receptor; test: Agonist activity at human cloned NOP receptor expressed in CHO cell membranes after 30 mins by [35S]GTPgammaS binding assay

SMILES	Ki (Nociceptin receptor [1]) [nM]	Ki (Mu-type opioid receptor) [nM]	Ki [2] [nM]	Ki [3] [nM]	EC50 (Nociceptin receptor [4]) [nM]
CCn1c(=O)n([C@@H]2CCN(CC3CCCCCCC3)C[C@H]2CO)c2ccccc21	0.403	> 400	> 400	> 400	
COC(=O)CN1CN(c2ccccc2)C2(CCN(Cc3cccc4ccccc34)CC2)C1=O	12.9	> 400	> 400	> 400	121
CNC(=O)Cn1c(=O)n(C2CCN([C@@H]3Cc4cccc5cccc3c45)CC2)c2ccccc21	0.336	> 400	> 400	> 400	1.6
